Two substances from patent US11584748B2, “Spirocyclic compounds” (priority 2018, dated 2023) can be followed below.

The chains behind the UniProt entries cited, without tags or fusion partners. Where a name states a change or a piece, a line headed by the entry shows the natural chain unless it says otherwise.
UniProt Q96SW2: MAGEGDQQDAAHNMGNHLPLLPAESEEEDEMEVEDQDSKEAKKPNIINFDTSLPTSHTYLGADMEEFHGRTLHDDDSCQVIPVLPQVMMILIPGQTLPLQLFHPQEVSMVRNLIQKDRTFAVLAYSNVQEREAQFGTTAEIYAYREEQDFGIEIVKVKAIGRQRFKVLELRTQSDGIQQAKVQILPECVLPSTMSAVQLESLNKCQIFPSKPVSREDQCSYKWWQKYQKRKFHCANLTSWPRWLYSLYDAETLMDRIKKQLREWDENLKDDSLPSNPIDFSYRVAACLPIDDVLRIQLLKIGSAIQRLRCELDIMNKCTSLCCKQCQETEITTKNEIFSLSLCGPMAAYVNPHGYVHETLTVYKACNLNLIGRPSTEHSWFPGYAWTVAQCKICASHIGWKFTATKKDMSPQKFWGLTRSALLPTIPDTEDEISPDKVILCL

The target of the assay is hCereblon(M1-L442)_hDDB1(M1-H1140) (Homo sapiens (Human), UniProt Q96SW2). As to the kind of experiment: Fluorescence direct binding (tryptophan fluorescence titration). Conditions: 20° C., excitation 280 nm, emission 340 nm, 50 mM Hepes 7.4 200 mM NaCl; read-out: Fluorescence h-Cereblon_DDB1 Mean Kd_EQ.

In the case of “2-(4-nitrophenyl)- 2,7-diazaspiro[4.5] decane-6,8-dione [Example 10]”, the Kd was 1 nM.

As to “2-(4-nitrophenyl)- 2,7-diazaspiro[4.5] decane-6,8-dione [Example 11]”, the Kd was 5 nM.
